The values below come from US4395969A (priority 1981, dated 1983).

The structures appear in SMILES notation.

Series [1] has as its system threespine stickleback. Nature of the series: Static bioassay, lethal concentration to threespine stickleback. The class given is in vivo, Gasterosteus aculeatus. Particulars: 50 mg/l; 12 h; artesian well water; 10 C.
Series [2] deals with chinook salmon. Kind of series: Static bioassay, lethal concentration to chinook salmon. To be noted: 50 mg/l; 12 h; artesian well water; 10 C.

By mortality is commonly meant the percentage killed. Regarding `CCOP(=S)(Cl)OCC`, the mortality in series [1] is 100%; in series [2], 0%.
